Results published in patent publication US7335757B2, “Carbonyl reductase, gene encoding the same, and process for producing optically active alcohols using the same” (Mitsubishi Chemical Corporation, priority 2002, dated 2008).

What follows are compounds tested on carbonyl reductase (assay: Reduction activity of the enzyme on various ketones and aldehyde (initial rate of NADPH decrease)). Conditions: relative to 2,2,2-trifluoroacetophenone defined as 100, 0.1 M phosphate buffer pH 7.0.
Format: biochemical, Ogataea minuta var. nonfermentans IFO 1473

First: CC(C)(C)C(=O)CBr
Second: 2,3-Pentadione
The “Specific activity (%)” value of the first is higher: 55.4% for the first, 21.5% for the second.

With 3-Chloro-2,4-pentadione the “Specific activity (%)” value was 32.7%.
